In the assay the target is T1, Type II NADH dehydrogenase (NDH-2, NdhC) (Staphylococcus aureus, UniProt Q2FZV7).
T1 sequence (Q2FZV7 1-402): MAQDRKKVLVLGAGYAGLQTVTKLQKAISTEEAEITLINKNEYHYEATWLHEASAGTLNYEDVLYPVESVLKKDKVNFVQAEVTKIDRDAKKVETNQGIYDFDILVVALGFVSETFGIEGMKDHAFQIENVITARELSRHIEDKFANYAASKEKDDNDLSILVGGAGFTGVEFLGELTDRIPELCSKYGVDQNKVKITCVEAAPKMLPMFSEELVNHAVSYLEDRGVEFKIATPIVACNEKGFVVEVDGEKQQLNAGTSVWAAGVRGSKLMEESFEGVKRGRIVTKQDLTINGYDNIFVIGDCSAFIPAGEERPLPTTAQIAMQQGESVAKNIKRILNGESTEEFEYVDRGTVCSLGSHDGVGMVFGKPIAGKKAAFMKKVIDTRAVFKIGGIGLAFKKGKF
The experiment in a line: biochemical. Also noted: gene SAOUHSC_00878.

In paper PMC11124336, “Myricetin Acts as an Inhibitor of Type II NADH Dehydrogenase from Staphylococcus aureus” (Molecules, 2024) one finds IC50 data, which are given here for 1 compound.

For the compound `O=c1c(O)c(-c2cc(O)c(O)c(O)c2)oc2cc(O)cc(O)c12` [Myricetin, 3, 3′, 4′, 5, 5′, 7-hexahydroxy flavone], half-maximal inhibition (IC50) was put at 2000 nM.

The term IC50 denotes the point on the concentration scale where inhibition reaches its midpoint.
